Measured values: US7572762B1, “Materials and methods relating to the induction of apoptosis in target cells” (University of Dundee, priority 1998, dated 2009)

Tested on: 293 cells (transformed kidney epithelial cells)
Assay: FACS (propidium iodide) analysis of apoptosis, 293 cells
Assay type: cell-based, human

CN(C(=O)Cc1ccc(Cl)c(Cl)c1)[C@@H]1CCCC[C@H]1N1CCCC1 (relative stereo)
induction of sub-G1 (apoptotic) cells (agent alone, 48 hours): marked induction
induction of death (cells transfected with mutant super-repressor IκB): fails to induce death
